Tests used:
[1] = test system: MC3T3-E1 subclone 4 cells; assay: BMP-2 stimulated PGE2 production by MC3T3 cells (ELISA); assay type: cell-based, mouse; conditions: suboptimal concentration of rhBMP-2 alone
Experimental: Methods: MC3T3-E1 subclone 4 cells are neonatal mouse derived calvarial preosteoblasts with fibroblast morphology. […] For this experiment the MC3T3 cells were plated 10^5 cells per well in 24 well plates in growth medium (alpha MEM+1 mM sodium pyruvate+10% fetal bovine serum (FBS)). After 24 hours of culture the media was removed and replaced with assay media (alphaMEM+1 mM sodium pyruvate+2% FBS) containing the test substances. Each test group utilized 4 wells. After incubation for a further 24 hours the media was removed and the levels of PGE2 were determined using an ELISA (R&D Systems).

dorsal muscle of mice = assay: Ectopic bone formation in mouse dorsal muscle with implanted polymer; assay type: in vivo, ICR mice
Excerpt: It has been known that BMP causes bone formation when administered or implanted in mammals when given. The activity can be enhanced when given in the appropriate delivery vehicle. […] With lower, suboptimal doses of rhBMP-2, the there is minimal or no bone formation.
Materials and Methods: Polymer pellets containing both BMP-2 and the peptide of SEQ ID No. 8 in the following amounts (see table below) were implanted in the dorsal subfascia of 4 week old ICR mice. The mice were sacrificed 3 weeks later and the newly formed bones were isolated for evaluation using soft X-ray radiograph and bone mineral density determination.

B1: BMP-2: recombinant human bone morphogenic protein-2 (rhBMP-2) (protein, UniProt P12643 283-396, looked up)
Bone morphogenetic protein 2: QAKHKQRKRLKSSCKRHPLYVDFSDVGWNDWIVAPPGYHAFYCHGECPFPLADHLNSTNHAIVQTLVNSVNSKIPKACCVPTELSAISMLYLDENEKVVLKNYQDMVVEGCGCR
COX-2 or PGE2 upregulation by rhBMP-2 alone [1]: marginally upregulated | Bone formation compared to a 5 μg dose (dorsal muscle of mice; 3 μg rhBMP-2 (suboptimal dose)): substantially less bone formation | Time until new bone tissue was locally formed (dorsal muscle of mice; 5 μg or higher amount of rhBMP-2 in PLA/PEG/DX polymer, mouse dorsal muscle): about 20 days

Reference: patent US7638486B2, “Method for promoting hard tissue formation” (Acologix, Inc., priority 2005, dated 2009)
